# Measurements taken from patent publication US20140243319A1, “TREATMENTS TARGETING GAMMA-SYNUCLEIN EXPRESSION LEVELS” (GEORGETOWN UNIVERSITY, priority 2011, published 2014).
# Test system: γ-Syn
# Assay: Western blot of γ-Syn protein in brain of WKY rats
# Format: in vivo
# Settings: WKY rat, chronic treatment for 2 weeks
# Text: In brain, γ-Syn is expressed in presynaptic terminals of monoaminergic neurons, and our lab has shown that this protein can regulate the function of norepinephrine and serotonin transporters. Unlike α-Syn, whose role in neurodegenerative diseases such as Parkinson's disease is well established, a role for γ-Syn in neurodegeneration is not known. γ-Syn is overexpressed in the frontal cortex of the WKY, a rat model of depression. […] The ability of γ-Syn to bind tightly to MTs may be one mechanism by which its overexpression in carcinomas protects cells from the MT actions of chemotherapeutic agents, for example, taxol, nocodazole, vinblastine and colchicine.
smiles,measurement,value
"CNCCCN1c2ccccc2CCc2ccccc21 [DMI, desipramine]",γ-Syn levels in frontal cortex,decrease in γ-Syn levels
